Ab-14 heavy chain CDR variants: yeast mating affinities

Reference: Engelhart et al. 2022, doi:10.1038/s41597-022-01779-4. File: FLAb, binding data.

The target is the same throughout: PDVDLGDISGINAS, from the HR2 region of SARS-CoV-2 spike.

Each scFv is VH, a (GGGGS)3 linker, VL, as in the parent Ab-14, and differs from it in the CDRs of the heavy chain only.
VH: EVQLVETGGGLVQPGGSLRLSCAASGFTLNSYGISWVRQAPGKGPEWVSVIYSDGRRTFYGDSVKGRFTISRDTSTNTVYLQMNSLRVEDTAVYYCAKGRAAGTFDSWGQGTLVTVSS
VL: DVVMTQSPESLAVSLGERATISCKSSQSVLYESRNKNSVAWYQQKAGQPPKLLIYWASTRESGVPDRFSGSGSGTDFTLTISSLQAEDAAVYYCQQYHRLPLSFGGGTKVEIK

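Phage display of a naive human antibody library on the peptide gave the parent. AAYL49 was designed without a model: most single CDR substitutions and a random sample of double and triple ones. AlphaSeq pools MATa yeast showing the antibodies with MATalpha yeast showing the peptide. Pairs that bind mate more often; barcode pairs of the diploids are counted by sequencing. Read counts were normalised to the haploid input and turned into Kd by a linear fit to BCL2-family pairs of known affinity, for each replicate. Mating was done three times.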

Sequences are complete VH domains. The read-out is the apparent dissociation constant on a log10 scale (nM): the lower, the stronger. A mean of the replicates is given; it leaves out those without a signal. Where no diploid with the target was found in that replicate, the entry reads "ND": below detection, most likely a poor binder, though not proof of it. Empty control strains, which show no peptide, gave a signal in 15% of pairings with library AAYL49; the median was 4.06 and 95% of these signals were weaker than 2.83. No background was subtracted.

log10 Kd, replicates	mean, log10 nM	VH
3.58 / ND / ND	3.58	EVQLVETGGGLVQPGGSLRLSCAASGFTLNSYGISWVRQAPGKGPEWVSVIYSDGRRTFYVDSVKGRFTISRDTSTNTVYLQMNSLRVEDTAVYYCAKGRTAGLFDSWGQGTLVTVSS
ND / ND / 5.33	5.33	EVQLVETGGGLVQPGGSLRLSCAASGFTLNSYYLSWVRQAPGKGPEWVSVIYSDGRRTFMGDSVKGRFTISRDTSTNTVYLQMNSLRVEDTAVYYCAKGRAAGTFDSWGQGTLVTVSS
ND / 3.81 / 3.29	3.55	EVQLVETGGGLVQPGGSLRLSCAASVFTLNSYGISWVRQAPGKGPEWVSVIYSDGRRTFYGDNVMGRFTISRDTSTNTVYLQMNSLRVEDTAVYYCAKGRAAGTFDSWGQGTLVTVSS
ND / ND / ND	ND	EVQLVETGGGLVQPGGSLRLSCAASGFTLNSYAPSWVRQAPGKGPEWVSVIYSDGRRTFYGDSVKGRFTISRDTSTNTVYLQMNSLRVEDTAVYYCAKGRAAGTFDSWGQGTLVTVSS
ND / ND / ND	ND	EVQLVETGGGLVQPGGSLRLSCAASGFQLNSYGISWVRQAPGKGPEWVSVIYSDGRREFYGDSVKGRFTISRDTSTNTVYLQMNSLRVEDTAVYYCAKGRALGTFDSWGQGTLVTVSS
ND / ND / ND	ND	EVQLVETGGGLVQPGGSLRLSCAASGPTGNSYGISWVRQAPGKGPEWVSVIYSDGRRTFYGDSVKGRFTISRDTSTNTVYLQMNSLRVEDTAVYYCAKGRRAGTFDSWGQGTLVTVSS
ND / ND / ND	ND	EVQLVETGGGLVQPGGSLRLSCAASGFTLNSVGISWVRQAPGKGPEWVSVIYSDGRRTFYGDTVIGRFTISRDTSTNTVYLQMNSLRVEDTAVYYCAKGRAAGTFDSWGQGTLVTVSS
3.67 / ND / ND	3.67	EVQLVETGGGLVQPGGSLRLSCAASGFTLNSYGISWVRQAPGKGPEWVSVIYSDGRRTFYGRSHKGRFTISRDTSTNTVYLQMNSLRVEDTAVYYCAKGFAAGTFDSWGQGTLVTVSS
4.59 / ND / 4.11	4.35	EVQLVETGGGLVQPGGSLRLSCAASGFTANSYGISWVRQAPGKGPEWVSVIYSDGRRTFRGDSVKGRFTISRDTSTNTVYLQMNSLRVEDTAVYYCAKGRAEGTFDSWGQGTLVTVSS
2.66 / 1.89 / 2.98	2.51	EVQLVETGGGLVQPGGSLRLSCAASGFTLNSYGISWVRQAPGKGPEWVSVIYSDGDRTNYGDKVKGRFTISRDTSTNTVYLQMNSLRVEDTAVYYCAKGRAAGTFDSWGQGTLVTVSS
ND / ND / ND	ND	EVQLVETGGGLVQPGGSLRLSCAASGFTLNSYGISWVRQAPGKGPEWVSVIYSDGRRTFYGMSVKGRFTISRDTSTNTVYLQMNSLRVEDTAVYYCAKGRAAWWFDSWGQGTLVTVSS
ND / 4.34 / ND	4.34	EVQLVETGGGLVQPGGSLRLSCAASGFTVNSYGIQWVRQAPGKGPEWVSVIYSDGRRTMYGDSVKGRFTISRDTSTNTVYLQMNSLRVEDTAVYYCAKGRAAGTFDSWGQGTLVTVSS
ND / ND / 5.34	5.34	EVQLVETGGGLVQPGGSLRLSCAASGFTLNSYGISWVRQAPGKGPEWVSVIYSDERRTFYGFSVKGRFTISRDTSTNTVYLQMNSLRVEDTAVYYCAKRRAAGTFDSWGQGTLVTVSS
ND / ND / ND	ND	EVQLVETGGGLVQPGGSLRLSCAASGFDLNSYLISWVRQAPGKGPEWVSVIYSDGRRTFYGDSVKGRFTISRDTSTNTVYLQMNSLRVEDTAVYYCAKYRAAGTFDSWGQGTLVTVSS
ND / ND / ND	ND	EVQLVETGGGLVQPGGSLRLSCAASGFTLNSYGIDWVRQAPGKGPEWVSVIYSDGRRDFYGDSEKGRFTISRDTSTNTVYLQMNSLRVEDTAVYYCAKGRAAGTFDSWGQGTLVTVSS
ND / ND / ND	ND	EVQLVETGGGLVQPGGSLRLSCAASGFTLNSYGISWVRQAPGKGPEWVSVIYSDGYRTFYGDSVKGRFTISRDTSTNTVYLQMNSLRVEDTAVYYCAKGRAAGAFDSWGQGTLVTVSS
2.20 / 2.39 / 2.77	2.45	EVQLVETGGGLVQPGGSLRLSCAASGFTLNSYGISWVRQAPGKGPEWVSVIYSDGRKTFYQDSVQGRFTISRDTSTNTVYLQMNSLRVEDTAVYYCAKGRAAGTFDSWGQGTLVTVSS
ND / ND / ND	ND	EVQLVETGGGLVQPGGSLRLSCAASEFTLNSYGISWVRQAPGKGPEWVSVIYSDGDRTFFGDSVKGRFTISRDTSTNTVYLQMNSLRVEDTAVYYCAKGRAAGTFDSWGQGTLVTVSS

Again, the first 2 entries without any signal:

VH,"log10 Kd, replicates","mean, log10 nM"
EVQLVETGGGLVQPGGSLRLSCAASGFTLNSYAPSWVRQAPGKGPEWVSVIYSDGRRTFYGDSVKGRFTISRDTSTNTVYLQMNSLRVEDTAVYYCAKGRAAGTFDSWGQGTLVTVSS,ND / ND / ND,ND
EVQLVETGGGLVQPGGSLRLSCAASGFQLNSYGISWVRQAPGKGPEWVSVIYSDGRREFYGDSVKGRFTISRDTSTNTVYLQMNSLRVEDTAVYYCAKGRALGTFDSWGQGTLVTVSS,ND / ND / ND,ND

In this assay the parent's reference entry averaged 0.65; its copy inside this library read 4.11 (one replicate of three).